Laboratory results published in US12295937B2, “Psychoactive medicines and their use for treating psychiatric and neurological conditions and disorders” (Transcend Therapeutics, Inc., priority 2021, dated 2025).

Tested on: 168 GPCRs
Assay: β-arrestin GPCR screen (PathHunter / GPCRmax), agonist mode
Type: cell-based
Conditions: 1 and 10 micromolar (b480 prints mM)

**Q.** Which results are given for `CNC(C)C(=O)c1ccc2c(c1)OCO2` (centres unmarked) [Methylone, 3,4-methylenedioxy-N-methylcathinone]?
**A.** Agonist activity at 168 GPCRs (criterion >30% activity): no significant agonist activity detected; Agonist activity at 168 GPCRs (criterion >30% activity) (listed as methylone): did not meet criteria for agonist or antagonist activity at any of the 168 GPCRs tested
